Assay results taken from ChEMBL document CHEMBL4837224, “UNC5293, a potent, orally available and highly MERTK-selective inhibitor” (Eur J Med Chem, 2021).
The source made the active and inactive calls. No cut-off for these calls is given here.

Biological target: T1, Tyrosine-protein kinase Mer (Mus musculus) (UniProt Q60805)
T1 sequence (whole entry): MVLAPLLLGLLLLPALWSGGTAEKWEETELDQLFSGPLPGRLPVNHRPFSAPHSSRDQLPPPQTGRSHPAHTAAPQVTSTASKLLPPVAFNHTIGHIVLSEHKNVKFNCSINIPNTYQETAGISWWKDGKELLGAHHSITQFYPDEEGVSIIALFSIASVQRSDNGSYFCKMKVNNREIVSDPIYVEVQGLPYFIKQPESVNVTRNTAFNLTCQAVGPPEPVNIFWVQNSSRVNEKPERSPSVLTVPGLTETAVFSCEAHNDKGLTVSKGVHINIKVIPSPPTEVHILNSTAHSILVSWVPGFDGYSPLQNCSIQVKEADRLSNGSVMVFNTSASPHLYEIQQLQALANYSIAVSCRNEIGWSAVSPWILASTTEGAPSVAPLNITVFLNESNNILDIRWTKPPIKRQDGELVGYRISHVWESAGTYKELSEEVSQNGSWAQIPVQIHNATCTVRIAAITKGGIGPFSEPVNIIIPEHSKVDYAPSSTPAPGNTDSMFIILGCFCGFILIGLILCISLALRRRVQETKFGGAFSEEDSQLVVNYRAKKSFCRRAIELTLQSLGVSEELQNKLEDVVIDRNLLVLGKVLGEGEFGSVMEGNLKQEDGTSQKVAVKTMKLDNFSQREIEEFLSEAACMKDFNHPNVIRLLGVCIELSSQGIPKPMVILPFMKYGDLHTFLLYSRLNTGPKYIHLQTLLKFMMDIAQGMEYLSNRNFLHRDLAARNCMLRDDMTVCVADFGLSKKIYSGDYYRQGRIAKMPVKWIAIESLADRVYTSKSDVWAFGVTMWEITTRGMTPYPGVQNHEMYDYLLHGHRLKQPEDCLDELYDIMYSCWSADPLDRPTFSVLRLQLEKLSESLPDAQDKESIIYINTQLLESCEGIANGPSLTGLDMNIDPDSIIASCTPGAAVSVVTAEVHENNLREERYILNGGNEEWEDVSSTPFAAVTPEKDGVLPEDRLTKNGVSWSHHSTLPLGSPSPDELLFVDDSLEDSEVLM
Assay: In vivo inhibition of MERTK in NSG mouse xenografted with human 697 cells assessed as reduction in MERTK phosphorylation at 120 mg/kg, po preincubated for 10 mins followed by vanadate addition and measured after 10 mins by immunoblot analysis
Format: functional, organism-based
Settings: time 20.0 min

- inhibition: Active
SMILES: CCC[C@H](C)Nc1ncc2c(C3CCN(C(=O)c4cc(C)nc(C)c4)CC3)cn([C@H]3CC[C@H](O)CC3)c2n1
